Literature values, collected in patent US11987604B2, “Fusion-proteins based on human ferritin and protease-cleavable peptides and their use as chemotherapeutics carriers” (THENA BIOTECH S.R.L., priority 2017, dated 2024).

Details: injected through the systemic route; cited from earlier work

In the case of “native HFt: Heavy chain of native human ferritin, SEQ ID NO 1, 24-mer nanoparticle”, the plasma half-life is listed as 2 to 3 h.
